Experimental data reported in ChEMBL document CHEMBL1828562, “Aryl H-phosphonates 17: (N-aryl)phosphoramidates of pyrimidine nucleoside analogues and their synthesis, selected properties, and anti-HIV activity” (J Med Chem, 2011).

Key:
[1] = Chemical stability of the compound in RPMI cell culture media assessed as half life at 2 mM; details: 2000 µM
[2] = Cytotoxicity against human CEM-T4 cells assessed as cell viability at 30 uM after 7 days by MTT assay; type: cell-based; details: cem-t4, 168 h
[3] = Cytotoxicity against human CEM-T4 cells assessed as cell viability at 200 uM after 7 days by MTT assay; type: cell-based; details: cem-t4, 168 h
[4] = Chemical stability of the compound in RPMI cell culture media assessed as compound decomposition by HPLC analysis in presence of human MT4 cells

Compound	t1/2 [1]	Activity [2]	Activity [3]	Stability [4]
O=c1ccn([C@H]2CC[C@@H](COP(=O)(O)Nc3ccccn3)O2)c(=O)[nH]1	22.1 h	Non-toxic		
Cc1cn([C@H]2C[C@H](N=[N+]=[N-])[C@@H](COP(=O)(O)Nc3ccccn3)O2)c(=O)[nH]c1=O	117 h		Non-toxic	Stable
